From PMC5934274

System: NC(=O)c1ccc[n+]([C@@H]2O[C@H](COP(=O)([O-])OP(=O)(O)OC[C@H]3O[C@@H](n4cnc5c(N)ncnc54)[C@H](O)[C@@H]3O)[C@@H](O)[C@H]2O)c1
Experiment: purified protein, by the assay type
Conditions: other: PARP1 FL

PARP1 (Homo sapiens)
Km: 0.78 ± 0.45 µM
